Data published in paper PMC5846678 (Bioorganic & medicinal chemistry letters, 2017).

How the values were obtained:
[1] = cited from earlier work
IGF1R/IR = test: biodistribution in rats 120 min post injection; type: in vivo, Sprague-Dawley rats

SMILES: C[C@@]1(C(=O)Nc2ccc([18F])nc2)CCCN1c1nc(Nc2cc(C3CC3)[nH]n2)c2cccn2n1 [[^18F]BMS-754807]
- logP [1]: 2.8
- clearance from blood (IGF1R/IR): largely cleared
